Source: ChEMBL document CHEMBL1157565, “Discovery of 1-[3-(4-bromo-2-methyl-2h-pyrazol-3-yl)-4-methoxyphenyl]-3-(2,4-difluorophenyl)urea (nelotanserin) and related 5-hydroxytryptamine2A inverse agonists for the treatment of insomnia” (J Med Chem, 2010)

Protein sequences, listed by entry. Tags and fused reporters are not part of them.
UniProt P14842, whole entry: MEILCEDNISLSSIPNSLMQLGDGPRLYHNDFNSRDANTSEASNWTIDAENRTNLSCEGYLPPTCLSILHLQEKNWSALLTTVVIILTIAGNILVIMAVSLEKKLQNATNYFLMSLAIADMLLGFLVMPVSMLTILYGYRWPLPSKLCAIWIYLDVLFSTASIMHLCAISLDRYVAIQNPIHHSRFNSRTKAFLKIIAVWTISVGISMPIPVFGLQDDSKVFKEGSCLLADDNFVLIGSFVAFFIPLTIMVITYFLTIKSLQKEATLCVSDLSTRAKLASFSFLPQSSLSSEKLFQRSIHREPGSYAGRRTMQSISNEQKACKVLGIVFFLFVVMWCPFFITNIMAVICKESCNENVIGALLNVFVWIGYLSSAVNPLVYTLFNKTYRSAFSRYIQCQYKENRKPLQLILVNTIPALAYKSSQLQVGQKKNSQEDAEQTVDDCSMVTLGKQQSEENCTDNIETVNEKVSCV

Target: 5-hydroxytryptamine receptor 2A (Rattus norvegicus, UniProt P14842)
Assay: Displacement of [125I]DOI from rat recombinant 5HT2A receptor by scintillation counting

SMILES: COc1ccc(NC(=O)Nc2ccc(Cl)cc2)cc1-c1c(Br)cnn1C
- Ki: 3.98 nM

SMILES: COc1ccc(NC(=O)Nc2ccc(F)cc2)cc1-c1c(Br)cnn1C
- Ki: 3.98 nM
